{"source": "ChEMBL document CHEMBL3763110", "about": "“A potent and selective inhibitor targeting human and murine 12/15-LOX” (Bioorg Med Chem, 2016)", "key": {"Homo sapiens [1]": {"species": "Homo sapiens", "assay": "Selectivity ratio of IC50 for N-terminal His6-tagged human 12-LOX to IC50 for N-terminal His6-tagged human 12/15-LOX"}, "Homo sapiens [2]": {"species": "Homo sapiens", "assay": "Selectivity ratio of IC50 for human 5-LOX to IC50 for N-terminal His6-tagged human 12/15-LOX"}}}
{"compound": "Cc1ccc(O)c(-c2cc(-c3ccccc3C)[nH]n2)c1", "values": [{"measurement": "Ratio IC50", "setting": "Homo sapiens [1]", "value": 15}, {"measurement": "Ratio IC50", "setting": "Homo sapiens [2]", "value": "> 30"}]}
